In assay [1] the target is infliximab-TNFα complex (UniProt P01375). Put plainly: QCM, immobilized TNFα; 100 µg/mL C1q plus 100 µg/mL infliximab in PBS (5 µL into 495 µL) against infliximab alone.
In assay [2] the target is T1, tumor necrosis factor α (TNFα) (UniProt P01375 77-233).
T1 construct: also called TNFα 4
Put plainly: QCM (27 MHz), TNFα immobilized on gold electrode, infliximab in PBS, curve regression with 1:1 binding model.

Chains of the proteins cited; added tags and fusions are not shown. Residues count along the entry.
UniProt P01375, 77-233: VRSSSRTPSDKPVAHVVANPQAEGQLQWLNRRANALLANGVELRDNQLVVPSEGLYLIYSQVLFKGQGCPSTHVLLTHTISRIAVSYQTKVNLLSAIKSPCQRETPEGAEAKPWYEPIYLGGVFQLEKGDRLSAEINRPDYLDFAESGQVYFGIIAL

“C1q (from UniProt P02745 23-245; P02746 28-253; P02747 29-245)”: in assay [1], the frequency change above infliximab alone was 1000 Hz.

B1: infliximab (antibody, V domains shown)
VH: EVKLEESGGGLVQPGGSMKLSCVASGFIFSNHWMNWVRQSPEKGLEWVAEIRSKSINSATHYAESVKGRFTISRDDSKSAVYLQMTDLRTEDTGVYYCSRNYYGSTYDYWGQGTTLTVSS
VL: DILLTQSPAILSVSPGERVSFSCRASQFVGSSIHWYQQRTNGSPRLLIKYASESMSGIPSRFSGSGSGTDFTLSINTVESEDIADYYCQQSHSWPFTFGSGTNLEVKR
The molecule B1 returned a Kd in assay [2] of 0.48 nM. This counts as sub-nanomolar.

The values are drawn from patent US20110269149A1 (published 2011).
